ChEMBL document CHEMBL1154109, “In vitro biological activity and structural analysis of 2,4-diamino-5-(2'-arylpropargyl)pyrimidine inhibitors of Candida albicans” (Bioorg Med Chem, 2009)

target: T1, Dihydrofolate reductase (Homo sapiens, UniProt P00374)
T1 sequence (P00374 whole entry): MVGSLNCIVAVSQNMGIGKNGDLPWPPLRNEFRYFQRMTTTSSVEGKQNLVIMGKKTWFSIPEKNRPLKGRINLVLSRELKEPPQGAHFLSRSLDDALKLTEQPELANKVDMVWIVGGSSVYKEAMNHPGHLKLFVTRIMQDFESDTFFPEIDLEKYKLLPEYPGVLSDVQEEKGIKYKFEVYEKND

Structure (SMILES)	IC50 [µM]
COc1cc(CC#Cc2c(C)nc(N)nc2N)cc(-c2c(C)cccc2C)c1	1.58
COc1cc(-c2ccccc2)cc(C(O)C#Cc2c(C)nc(N)nc2N)c1 (racemic)	2.3

These reach a lower IC50. Values come first.

IC50 [µM]	Structure (SMILES)
1.2	COc1ccc(OC)c(C(O)C#Cc2c(C)nc(N)nc2N)c1 (racemic)
0.088	CCc1nc(N)nc(N)c1C#CC(C)c1cc(OC)c(OC)c(OC)c1 (racemic)
0.29	COc1cc(C(C#Cc2c(C)nc(N)nc2N)C(C)C)cc(OC)c1OC (racemic)
